ChEMBL document CHEMBL1144187, “Pharmacophore modeling and virtual screening for designing potential PLK1 inhibitors” (Bioorg Med Chem Lett, 2008)

Target: Serine/threonine-protein kinase PLK1 (Homo sapiens, UniProt P53350)

| Compound | IC50 |
| --- | --- |
| CCOC(=O)/C(C#N)=c1\s/c(=C/Nc2cccc(C)c2)c(=O)n1CC | 46 nM |
| CCOC(=O)/C(C#N)=c1\s/c(=C/Nc2ccc(C(C)=O)cc2)c(=O)n1CC | 81 nM |
| CCN(CC)CCNC(=O)c1c[nH]c2ccc(N/C=c3/s/c(=C(/C#N)C(=O)NCC(F)(F)F)n(CC)c3=O)cc12 | 41 nM |
